Experimental data from patent US4863898A, “Amino acid chelated compositions for delivery to specific biological tissue sites” (priority 1986, dated 1989).

Parameters: species or system rats
Conditions: rat, in vivo
From the text: Leucine was used as the ligand and zinc as the metal. Composition A is therefore a mixture, or at best a complex consisting of one mole of leucine (mole weight 131.17) and one more of zinc chloride. […] Composition B consisted of two moles of leucine admixed with one mole of zinc chloride to form a mixture. Composition C was formed by reacting two moles of leucine with one mole of zinc to obtain a zinc-leucine amino acid chelate having a molecular weight of about 325.82. […] Composition A contained leucine equivalent to 10 microliters of 0.76M. leucine and was adjusted to pH 9 with 20 microliters of 0.05 N NaOH. Composition B contained leucine equivalent to 20 microliters of 0.76M. leucine containing 20 microliters distilled water in lieu of pH adjustment. The pH of this solution was about 3. Composition C contained the same ingredients as Composition B except in chelated form and the pH was adjusted to 9 with 20 microliters of 0.13M Na2 CO3. The procedure of Example lI was fo lowed using three rats in each group. Upon sacrificing, blood was drawn and certain tissues excised to determine the amount of radioactive zinc which had migrated to the blood and tissues two hours post injection.

radioactive zinc in Brain: 2.41 cc/min/mg
Structure (SMILES): CC(C)C[C@H](N)C(=O)[O-].CC(C)C[C@H](N)C(=O)[O-].[Zn+2] [Comp. C, zinc-leucine amino acid chelate]
